From ChEMBL document CHEMBL1144698, “New approach to measure protein binding based on a parallel artificial membrane assay and human serum albumin” (J Med Chem, 2008)

Amino acid sequences for entries named in this document (tags omitted).
UniProt P02768, whole entry: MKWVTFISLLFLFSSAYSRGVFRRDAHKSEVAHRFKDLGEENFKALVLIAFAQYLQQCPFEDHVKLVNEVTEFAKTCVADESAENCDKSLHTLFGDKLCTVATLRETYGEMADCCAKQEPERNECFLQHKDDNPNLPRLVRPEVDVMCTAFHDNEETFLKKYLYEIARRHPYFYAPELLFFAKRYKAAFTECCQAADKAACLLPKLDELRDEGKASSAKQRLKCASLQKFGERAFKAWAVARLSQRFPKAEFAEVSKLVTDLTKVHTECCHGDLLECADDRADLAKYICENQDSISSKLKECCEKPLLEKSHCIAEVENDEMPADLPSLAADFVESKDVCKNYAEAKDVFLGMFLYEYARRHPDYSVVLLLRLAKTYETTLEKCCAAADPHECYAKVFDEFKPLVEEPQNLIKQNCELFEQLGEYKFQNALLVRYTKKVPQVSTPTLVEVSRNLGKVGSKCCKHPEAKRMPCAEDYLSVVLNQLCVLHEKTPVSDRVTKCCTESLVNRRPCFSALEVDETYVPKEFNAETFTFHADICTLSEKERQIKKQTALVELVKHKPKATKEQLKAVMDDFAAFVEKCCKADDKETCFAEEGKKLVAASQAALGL

Target: Albumin (Homo sapiens, UniProt P02768)
Experiment: Binding affinity to human serum albumin by PAMPA method
Assay type: ADME

CN(C)CCCN1c2ccccc2Sc2ccc(Cl)cc21 [CHLORPROMAZINE]
Kd: 55 µM
